Test system: B6×129-IL-10−/− mice
Details: 50 ng/d for females; 100 ng/d for males from age 7 weeks; loss after age 14 weeks

`C=C1/C(=C\C=C2/CCC[C@]3(C)[C@@H]([C@H](C)CCCC(C)(C)O)CC[C@@H]23)C[C@@H](O)C[C@@H]1O` [Calcitriol, 1,25 dihydroxyvitamin D3] was tested, and the Weight lost was “about 15%”.
